Assay results from US6303749A, “Agouti and agouti-related peptide analogs” (Amgen Inc., priority 1999, dated 2001).

Amino acid sequences for entries named in this document (tags omitted). A change or cut given only in a name is not applied to a line headed by its entry.
UniProt P41968: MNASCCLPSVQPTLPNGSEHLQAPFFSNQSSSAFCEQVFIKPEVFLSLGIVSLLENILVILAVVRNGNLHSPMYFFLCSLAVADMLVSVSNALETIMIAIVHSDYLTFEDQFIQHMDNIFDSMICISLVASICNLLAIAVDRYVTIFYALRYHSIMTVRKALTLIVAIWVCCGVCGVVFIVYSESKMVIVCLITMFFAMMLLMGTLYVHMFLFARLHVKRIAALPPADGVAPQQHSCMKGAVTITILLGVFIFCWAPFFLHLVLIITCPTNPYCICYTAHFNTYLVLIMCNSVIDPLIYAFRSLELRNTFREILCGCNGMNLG

Target: T1, human melanocortin-3 (MC-3) receptors (Homo sapiens, UniProt P41968)
T1 construct: expressed in transfected cells; membrane fraction used
Test: Melanocortin receptor binding assay, 125I-NDP-alpha-MSH competition, MC-3
Details: HEK 293 cell membranes; about […] 125I-NDP-α-MSH; 180 minutes at 25 C; read-out: hMC3 IC50 (nM) 125I NDP-MSH
Method: Human embryonic kidney (HEK) 293 cells stably expressing human melanocortin-3 (MC-3) or human melanocortin-4 (MC-4) receptors were used for ^125 I-[Nle4,dPhe7]α-melanocte stimulating hormone (NDP-α-MSH) and ^125 I-AGRP radioligand binding studies.
For ^125 I-NDP-α-MSH binding, cells were collected in phosphate buffered saline (PBS) and homogenized in Buffer A containing about 25 mM HEPES and about 0.32 M sucrose (pH 7.4), after which the homogenate was spun at 48,000×g for 12 minutes. The resulting pellet, which contained the cell membrane fraction, was resuspended in Buffer B containing about 25 mM HEPES, Modified Eagle's medium (without phenol red), about 0.1 percent bovine serum albumin (BSA), about 0.1 mg/ml soybean trypsin inhibitor (STI) and about 0.1 mg/ml 4-(2-aminoethyl)-benzenesulfonyl fluoride (AEBSF) (pH 7.4), and spun at 48,000×g for 12 minutes. This step was repeated one additional time, and the final pellet was resuspended in Buffer B to a concentration of about 4 mg wet weight of cell membrane per ml.
The binding reaction was initiated by the addition of cell membrane extract (about 50 μl) to wells containing about 0.15 nM ^125 I-NDP-α-MSH (2000 Ci/mmole, Amersham, Arlington Heights, Ill.) and varying concentrations of unlabeled AGRP/ASP peptides. The final assay volume was 100 μl. […] Radioactivity was quantified using a Packard TopCount. […]

With “Cys-Abu-Asp-Pro-Cys-Ala-Thr-Abu-Tyr-Cys-Arg-Phe-Phe-Asn-Ala-Phe-Cys-Tyr-Cys-Arg-Lys-Leu-Gly-Thr-Ala-Met-Asn-Pro-Cys-Ser-Arg-Thr [SEQ ID NO:8]” the IC50 was greater than 1000 nM.
